According to ChEMBL document CHEMBL1131307, “Novel nonnucleoside inhibitors of HIV-1 reverse transcriptase. 8. 8-Aryloxymethyl- and 8-arylthiomethyldipyridodiazepinones” (J Med Chem, 1998):

Target: Human immunodeficiency virus type 1 reverse transcriptase (Human immunodeficiency virus 1, UniProt Q72547)
Assay: Inhibitory activity against HIV-1 wild-type reverse transcriptase.

## CCN1c2ncc(COc3ccccc3F)cc2C(=O)N(C)c2ccc(Cl)nc21
  IC50: 170 nM

## CCN1c2ncc(COc3cccc(O)c3)cc2C(=O)N(C)c2ccc(Cl)nc21
  IC50: 130 nM
